Laboratory results published in US7737138B2 (priority 2004, dated 2010).

Protein sequences, listed by entry. Tags and fused reporters are not part of them. Residues count along the entry.
UniProt P10636, 612-707 limits assumed: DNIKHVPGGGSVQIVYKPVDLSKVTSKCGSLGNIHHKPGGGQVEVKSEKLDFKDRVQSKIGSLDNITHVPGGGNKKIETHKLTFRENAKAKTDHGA

Biological target: full-length tau (T40) / 12 kD PHF-core tau fragment in fibroblast cells (3T6) (Homo sapiens, UniProt P10636)
Assay: Cell-based assay for establishing EC50 (generation of the 12 kD fragment)
Details: concentration at which there is a 50% inhibition of generation of the 12 kD fragment; 3T6 cells; tested form: Cl

Question: With `CCN(CC)c1cc(C)c2nc3c(C)cc(N(CC)CC)cc3[s+]c2c1` as the compound, how does the EC50 read?
Answer: The EC50 was 4 nM.
